In ChEMBL document CHEMBL1136629, “Amphipathic 3-phenyl-7-propylbenzisoxazoles; human pPaR gamma, delta and alpha agonists” (Bioorg Med Chem Lett, 2003):
pKi: −log10 of the molar value.

Protein sequences, listed by entry. Tags and fused reporters are not part of them. Lines headed by an entry give the natural chain unless they say otherwise; changes in a name come on top.
UniProt P37231: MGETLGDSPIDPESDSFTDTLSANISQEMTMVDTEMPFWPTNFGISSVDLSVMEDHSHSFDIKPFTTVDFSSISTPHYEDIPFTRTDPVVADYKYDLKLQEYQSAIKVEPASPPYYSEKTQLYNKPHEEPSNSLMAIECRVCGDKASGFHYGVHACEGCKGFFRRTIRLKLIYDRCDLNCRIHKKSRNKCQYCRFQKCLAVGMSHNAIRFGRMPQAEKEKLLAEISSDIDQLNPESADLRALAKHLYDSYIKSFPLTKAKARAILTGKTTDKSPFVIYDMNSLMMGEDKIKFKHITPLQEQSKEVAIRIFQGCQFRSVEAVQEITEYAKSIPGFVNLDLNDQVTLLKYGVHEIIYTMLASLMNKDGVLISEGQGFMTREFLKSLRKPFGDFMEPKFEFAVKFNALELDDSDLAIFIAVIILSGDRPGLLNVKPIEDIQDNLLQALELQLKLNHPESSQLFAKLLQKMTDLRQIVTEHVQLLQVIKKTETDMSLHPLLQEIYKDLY

Biological target: Peroxisome proliferator-activated receptor gamma (Homo sapiens, UniProt P37231)
Assay: In vitro binding affinity towards human peroxisome proliferator activated receptor gamma (PPAR gamma)

CCCc1c(OCCCOc2ccc(CC(=O)O)cc2)ccc2c(-c3ccccc3)noc12
pKi: 7.49
